We go through one molecule from patent US9340590B2 (priority 2011, dated 2016).

Sequences of proteins named here, by UniProt entry; tags and fusion partners are left off.
UniProt Q15858, whole entry, looked up: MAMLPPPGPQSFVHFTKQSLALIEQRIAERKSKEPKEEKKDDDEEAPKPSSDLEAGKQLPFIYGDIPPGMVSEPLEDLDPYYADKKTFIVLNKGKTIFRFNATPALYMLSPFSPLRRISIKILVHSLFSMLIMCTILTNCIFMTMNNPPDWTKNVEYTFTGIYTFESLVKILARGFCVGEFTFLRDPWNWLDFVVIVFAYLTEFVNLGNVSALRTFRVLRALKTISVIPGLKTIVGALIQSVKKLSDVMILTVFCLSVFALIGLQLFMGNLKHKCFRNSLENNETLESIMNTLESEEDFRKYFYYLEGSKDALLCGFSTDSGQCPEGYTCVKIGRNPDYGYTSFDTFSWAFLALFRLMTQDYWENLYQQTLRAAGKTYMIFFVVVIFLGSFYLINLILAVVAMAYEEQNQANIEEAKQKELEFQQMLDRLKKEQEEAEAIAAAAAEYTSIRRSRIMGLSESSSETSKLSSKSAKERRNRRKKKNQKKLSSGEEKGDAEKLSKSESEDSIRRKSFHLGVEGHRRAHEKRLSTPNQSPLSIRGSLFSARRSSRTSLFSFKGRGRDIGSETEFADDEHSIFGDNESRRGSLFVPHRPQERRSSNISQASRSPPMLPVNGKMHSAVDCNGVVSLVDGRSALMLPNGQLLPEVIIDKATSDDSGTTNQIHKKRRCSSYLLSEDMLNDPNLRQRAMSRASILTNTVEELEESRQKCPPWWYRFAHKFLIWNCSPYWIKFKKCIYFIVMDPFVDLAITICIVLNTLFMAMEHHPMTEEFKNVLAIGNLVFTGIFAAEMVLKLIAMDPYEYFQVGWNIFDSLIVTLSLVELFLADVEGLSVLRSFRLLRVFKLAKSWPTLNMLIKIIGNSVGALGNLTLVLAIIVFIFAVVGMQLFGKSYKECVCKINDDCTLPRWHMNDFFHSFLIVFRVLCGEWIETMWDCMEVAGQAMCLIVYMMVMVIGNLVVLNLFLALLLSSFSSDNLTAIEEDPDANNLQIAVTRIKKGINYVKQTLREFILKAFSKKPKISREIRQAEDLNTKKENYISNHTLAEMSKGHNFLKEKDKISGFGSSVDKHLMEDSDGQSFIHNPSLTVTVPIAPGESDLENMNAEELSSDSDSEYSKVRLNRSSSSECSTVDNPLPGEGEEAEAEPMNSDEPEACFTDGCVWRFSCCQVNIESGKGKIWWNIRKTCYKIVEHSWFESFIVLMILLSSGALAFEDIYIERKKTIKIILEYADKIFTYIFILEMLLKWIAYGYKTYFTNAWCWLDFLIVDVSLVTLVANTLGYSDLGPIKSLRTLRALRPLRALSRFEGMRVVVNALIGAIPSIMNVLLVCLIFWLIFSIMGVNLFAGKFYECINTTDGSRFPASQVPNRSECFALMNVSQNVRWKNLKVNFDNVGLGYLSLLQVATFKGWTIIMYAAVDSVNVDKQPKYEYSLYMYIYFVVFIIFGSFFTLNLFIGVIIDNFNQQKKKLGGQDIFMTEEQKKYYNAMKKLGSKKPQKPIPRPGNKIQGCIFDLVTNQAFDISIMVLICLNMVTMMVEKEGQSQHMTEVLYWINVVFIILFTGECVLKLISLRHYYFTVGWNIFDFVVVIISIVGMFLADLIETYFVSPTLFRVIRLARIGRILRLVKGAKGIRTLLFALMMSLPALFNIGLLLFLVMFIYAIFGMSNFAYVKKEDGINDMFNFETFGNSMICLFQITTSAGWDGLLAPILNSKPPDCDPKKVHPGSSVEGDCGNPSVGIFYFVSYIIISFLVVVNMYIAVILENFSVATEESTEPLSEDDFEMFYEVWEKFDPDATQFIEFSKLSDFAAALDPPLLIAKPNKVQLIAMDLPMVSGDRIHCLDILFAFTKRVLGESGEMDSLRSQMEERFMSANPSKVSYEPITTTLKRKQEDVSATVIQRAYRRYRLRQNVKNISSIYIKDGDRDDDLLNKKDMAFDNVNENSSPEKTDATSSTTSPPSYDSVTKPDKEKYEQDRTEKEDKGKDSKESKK
UniProt Q14524, whole entry, looked up: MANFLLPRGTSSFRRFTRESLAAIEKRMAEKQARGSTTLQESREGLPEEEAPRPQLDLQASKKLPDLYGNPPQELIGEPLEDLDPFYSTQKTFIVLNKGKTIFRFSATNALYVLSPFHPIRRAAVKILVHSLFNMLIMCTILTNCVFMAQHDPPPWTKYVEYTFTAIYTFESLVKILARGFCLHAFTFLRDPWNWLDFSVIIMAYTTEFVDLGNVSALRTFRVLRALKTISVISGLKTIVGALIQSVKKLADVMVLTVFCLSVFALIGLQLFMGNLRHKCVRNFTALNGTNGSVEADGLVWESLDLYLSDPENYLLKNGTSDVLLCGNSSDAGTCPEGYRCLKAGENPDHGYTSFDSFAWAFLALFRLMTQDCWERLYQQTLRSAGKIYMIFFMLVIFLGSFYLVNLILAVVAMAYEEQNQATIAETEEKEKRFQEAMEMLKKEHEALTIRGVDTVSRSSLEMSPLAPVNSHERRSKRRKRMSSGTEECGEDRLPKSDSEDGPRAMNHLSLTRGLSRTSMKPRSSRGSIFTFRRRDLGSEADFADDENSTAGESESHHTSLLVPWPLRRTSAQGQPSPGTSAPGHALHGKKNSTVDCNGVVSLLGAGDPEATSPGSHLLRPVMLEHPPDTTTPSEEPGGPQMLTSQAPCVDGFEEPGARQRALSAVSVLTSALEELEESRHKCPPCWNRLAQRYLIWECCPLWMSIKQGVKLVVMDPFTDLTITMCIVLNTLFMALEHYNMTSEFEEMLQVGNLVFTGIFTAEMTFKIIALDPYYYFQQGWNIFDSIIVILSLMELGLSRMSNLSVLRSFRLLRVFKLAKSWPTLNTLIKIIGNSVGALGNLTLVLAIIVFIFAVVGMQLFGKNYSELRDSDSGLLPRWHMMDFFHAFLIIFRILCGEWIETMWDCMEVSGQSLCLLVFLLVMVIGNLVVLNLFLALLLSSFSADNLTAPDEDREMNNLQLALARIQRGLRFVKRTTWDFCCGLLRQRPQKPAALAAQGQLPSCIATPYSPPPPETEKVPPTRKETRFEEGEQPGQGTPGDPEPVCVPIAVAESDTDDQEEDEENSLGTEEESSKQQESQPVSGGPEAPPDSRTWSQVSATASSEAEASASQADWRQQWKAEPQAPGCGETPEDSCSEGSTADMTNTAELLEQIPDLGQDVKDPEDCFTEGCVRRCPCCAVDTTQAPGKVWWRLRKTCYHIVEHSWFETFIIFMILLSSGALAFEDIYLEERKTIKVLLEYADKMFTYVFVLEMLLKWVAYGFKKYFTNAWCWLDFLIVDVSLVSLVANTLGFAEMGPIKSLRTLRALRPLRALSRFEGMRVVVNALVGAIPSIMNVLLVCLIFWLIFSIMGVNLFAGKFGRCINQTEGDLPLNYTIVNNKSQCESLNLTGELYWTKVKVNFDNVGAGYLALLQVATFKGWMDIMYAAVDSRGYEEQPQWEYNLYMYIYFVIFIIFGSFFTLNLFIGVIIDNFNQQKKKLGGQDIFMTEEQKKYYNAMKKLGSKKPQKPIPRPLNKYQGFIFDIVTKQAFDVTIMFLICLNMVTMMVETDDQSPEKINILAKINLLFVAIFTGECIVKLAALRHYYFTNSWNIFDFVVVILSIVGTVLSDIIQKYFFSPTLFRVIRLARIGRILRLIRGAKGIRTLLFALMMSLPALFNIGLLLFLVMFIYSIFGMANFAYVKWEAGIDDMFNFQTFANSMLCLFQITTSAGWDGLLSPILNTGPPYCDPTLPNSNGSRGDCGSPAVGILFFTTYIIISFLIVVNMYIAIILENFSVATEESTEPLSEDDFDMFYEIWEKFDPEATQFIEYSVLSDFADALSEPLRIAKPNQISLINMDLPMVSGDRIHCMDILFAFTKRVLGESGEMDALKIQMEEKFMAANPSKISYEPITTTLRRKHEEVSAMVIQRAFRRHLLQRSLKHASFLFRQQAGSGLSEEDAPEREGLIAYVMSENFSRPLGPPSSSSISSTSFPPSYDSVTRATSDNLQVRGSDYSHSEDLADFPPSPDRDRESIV
UniProt P35499, whole entry, looked up: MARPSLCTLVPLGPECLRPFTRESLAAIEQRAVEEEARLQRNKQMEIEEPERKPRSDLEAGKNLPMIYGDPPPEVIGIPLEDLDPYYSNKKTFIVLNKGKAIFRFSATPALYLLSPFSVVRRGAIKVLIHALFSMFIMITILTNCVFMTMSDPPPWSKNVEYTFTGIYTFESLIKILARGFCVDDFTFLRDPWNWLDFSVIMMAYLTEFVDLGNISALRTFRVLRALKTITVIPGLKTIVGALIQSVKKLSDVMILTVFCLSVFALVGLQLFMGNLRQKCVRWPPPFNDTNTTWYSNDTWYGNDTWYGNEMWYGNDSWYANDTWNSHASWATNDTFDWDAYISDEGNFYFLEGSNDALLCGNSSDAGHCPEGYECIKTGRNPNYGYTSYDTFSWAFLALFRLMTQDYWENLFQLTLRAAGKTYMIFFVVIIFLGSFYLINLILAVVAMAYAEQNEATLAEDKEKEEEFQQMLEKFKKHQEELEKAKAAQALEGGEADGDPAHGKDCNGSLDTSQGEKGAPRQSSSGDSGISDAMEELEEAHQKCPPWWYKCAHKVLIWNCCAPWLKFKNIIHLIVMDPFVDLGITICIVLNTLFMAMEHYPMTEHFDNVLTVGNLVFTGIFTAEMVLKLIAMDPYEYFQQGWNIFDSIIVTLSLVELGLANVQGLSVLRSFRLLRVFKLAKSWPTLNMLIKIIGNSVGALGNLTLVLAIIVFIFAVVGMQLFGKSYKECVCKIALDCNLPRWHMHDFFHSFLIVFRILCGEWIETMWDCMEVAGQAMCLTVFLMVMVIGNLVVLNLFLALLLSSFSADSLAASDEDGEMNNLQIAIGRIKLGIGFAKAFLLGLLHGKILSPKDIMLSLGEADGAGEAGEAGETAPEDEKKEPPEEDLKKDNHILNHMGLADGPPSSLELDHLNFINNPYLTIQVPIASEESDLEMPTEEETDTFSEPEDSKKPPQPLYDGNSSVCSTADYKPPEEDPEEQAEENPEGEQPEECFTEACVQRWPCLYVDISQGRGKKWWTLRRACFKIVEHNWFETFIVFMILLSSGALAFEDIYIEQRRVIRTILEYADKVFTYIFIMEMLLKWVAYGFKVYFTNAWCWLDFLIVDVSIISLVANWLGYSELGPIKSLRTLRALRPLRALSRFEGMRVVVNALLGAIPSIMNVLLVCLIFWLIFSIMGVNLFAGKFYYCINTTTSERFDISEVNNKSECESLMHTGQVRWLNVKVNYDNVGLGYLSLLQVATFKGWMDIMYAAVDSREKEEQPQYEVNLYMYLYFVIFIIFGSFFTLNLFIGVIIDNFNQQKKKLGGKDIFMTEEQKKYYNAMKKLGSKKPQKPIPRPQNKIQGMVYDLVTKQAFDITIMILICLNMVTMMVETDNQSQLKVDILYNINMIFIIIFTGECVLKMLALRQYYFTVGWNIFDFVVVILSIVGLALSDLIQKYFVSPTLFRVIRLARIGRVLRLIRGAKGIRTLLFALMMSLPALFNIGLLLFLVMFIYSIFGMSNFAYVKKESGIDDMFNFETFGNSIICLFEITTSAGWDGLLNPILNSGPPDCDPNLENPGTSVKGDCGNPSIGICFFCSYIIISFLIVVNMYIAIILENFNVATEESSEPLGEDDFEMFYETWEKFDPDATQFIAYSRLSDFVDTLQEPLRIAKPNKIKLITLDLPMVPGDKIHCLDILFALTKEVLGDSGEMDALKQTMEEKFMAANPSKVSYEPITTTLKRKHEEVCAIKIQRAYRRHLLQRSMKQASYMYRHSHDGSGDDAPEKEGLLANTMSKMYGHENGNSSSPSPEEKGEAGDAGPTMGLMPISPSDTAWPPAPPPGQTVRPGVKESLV

Molecules are shown by their SMILES.

What all share (test): cell-based
One test addresses hNav1.7 (Homo sapiens, UniProt Q15858).
The target of the next test is hNav1.5 (Homo sapiens, UniProt Q14524). The following applies: IonWorks Quattro, use-dependent block, read-out: IWQ Use Nav1.5.
The target of a further test is hNav1.3 (Homo sapiens, UniProt Q9NY46).
Another test addresses hNav1.4 (Homo sapiens, UniProt P35499). The following applies: IonWorks Quattro, use-dependent block, read-out: IWQ Use Nav1.4. In general terms: Patch clamp records ionic current or voltage across a cell membrane.

Take `CC(C)C[C@@H]1NC(=O)[C@@H](NC(=O)[C@@H](N)CC(=O)O)CSSC[C@@H]2NC(=O)[C@@H]3CSSC[C@@H](C(=O)N[C@@H](CCCCN)C(=O)N[C@@H](Cc4ccc(O)cc4)C(=O)N[C@@H](CCCCN)C(=O)N[C@@H](CC(C)C)C(=O)N[C@@H](Cc4c[nH]c5ccccc45)C(=O)O)NC(=O)[C@H](Cc4c[nH]c5ccccc45)NC(=O)[C@H](CCCCN)NC(=O)[C@H](CC(=O)O)NC(=O)[C@H](CCCNC(=N)N)NC(=O)[C@H](CCCNC(=N)N)NC(=O)[C@H](CC(N)=O)NC(=O)[C@H](CSSC[C@H](NC(=O)CNC(=O)[C@H](CCCCN)NC(=O)[C@H](Cc4ccccc4)NC(=O)[C@H](Cc4c[nH]c5ccccc45)NC(=O)CNC1=O)C(=O)N[C@@H](CC(=O)O)C(=O)N1CCC[C@H]1C(=O)N[C@@H](CC(=O)O)C(=O)N[C@@H](CC(N)=O)C(=O)N[C@@H](CC(=O)O)C(=O)N[C@@H](CCCCN)C(=O)N3)NC(=O)[C@H](CCCCN)NC(=O)[C@H](Cc1ccc(O)cc1)NC(=O)CNC(=O)[C@H](CCC(=O)O)NC2=O` [compound 472]: the IC50 came to 1300 nM on hNav1.7 (IonWorks Quattro, use-dependent block, hNav1.7, read-out: IWQ Use Nav1.7); 7300 nM on hNav1.5; 540 nM at hNav1.3 (IonWorks Quattro, use-dependent block, hNav1.3, read-out: IWQ Use Nav1.3); 4100 nM on hNav1.4. For the same molecule, the Nav1.4/Nav1.7 on hNav1.7 (ratio of IWQ Use values, Nav1.4 over Nav1.7) stood at 3.2. Further, the Nav1.4/Nav1.3 on hNav1.3 (ratio of IWQ Use values, Nav1.4 over Nav1.3) amounted to 7.6. The Nav1.7/Nav1.3 on hNav1.3 (ratio of IWQ Use values, Nav1.7 over Nav1.3) is 2.4.
